The record followed here is ChEMBL document CHEMBL3627709, “Discovery of a Novel, Potent Spirocyclic Series of γ-Secretase Inhibitors” (J Med Chem, 2015).

The species entered for this experiment is Homo sapiens. In words: Selectivity ratio of IC50 for human presenilin-2 to IC50 for human presenilin-1.

Regarding `CP1(=O)OCC2(CCC[C@@]3(S(=O)(=O)c4ccc(Cl)cc4)c4c(F)ccc(F)c4OC[C@@H]23)CO1` (stereo partly specified), the Ratio IC50 worked out at 33.
